Yeast mating assay 2: variants of the scFv Ab-91

Values reported by Engelhart et al. 2022, doi:10.1038/s41597-022-01779-4 (FLAb copy).

The target is the same throughout: PDVDLGDISGINAS, from the HR2 region of SARS-CoV-2 spike.

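The library (AAYL51) carries one to three amino acid substitutions per variant, with no insertions or deletions. In AlphaSeq, yeast of one mating type display the scFv and yeast of the other type display the target. Mating (16 h, 30 °C) was followed by selection of diploids and sequencing of their barcodes. The ratio of observed to expected reads was calibrated, replicate by replicate, on BCL2-family standards whose Kd was known from biolayer interferometry. The assay was run in three technical replicates.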

The variants keep the light chain, the linker and the frameworks of Ab-91 (scFv order VL, a 15-residue (Gly4Ser)3 linker, VH).
VL: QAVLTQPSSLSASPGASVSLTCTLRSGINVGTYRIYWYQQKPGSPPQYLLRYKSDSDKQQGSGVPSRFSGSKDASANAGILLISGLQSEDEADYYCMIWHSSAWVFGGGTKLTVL
VH: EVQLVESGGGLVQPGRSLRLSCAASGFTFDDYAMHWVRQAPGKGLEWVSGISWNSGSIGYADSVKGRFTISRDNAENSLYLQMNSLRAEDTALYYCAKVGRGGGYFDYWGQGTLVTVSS

Positions count from residue 1 of the parent VH; N54Q puts Q in place of N.
The read-out is the apparent dissociation constant on a log10 scale (nM): the lower, the stronger.
A mean of the replicates is given; it leaves out those without a signal.
Where no diploid with the target was found in any replicate, the entry reads "nd": below detection, most likely a poor binder, though not proof of it.
Background: pairings of library AAYL51 with three empty control strains gave a value in 21% of cases (median 4.54, 5th percentile 3.26). Values in that range, when seen in few replicates, are hard to tell from nonspecific mating.

changes	log10 Kd (nM), mean	detected
N54Q I58E D107R	4.64	1 of 3
G50N I51V A61Y	4.56	1 of 3
T28S G50H K65A	3.95	3 of 3
S52W S63D	nd	0 of 3
S55G D107C	3.04	3 of 3
S63I K65N Y108S	nd	0 of 3
G56V R101L G102E	nd	0 of 3
V64H V99I F106Y	nd	0 of 3
S57P Y60L G103C	4.04	1 of 3
F27M A33D V99C	nd	0 of 3
I51M G59H A61I	4.20	2 of 3
F29G A33W R101K	nd	0 of 3
Y32L H35K A61V	nd	0 of 3
D30W G103I	1.65	3 of 3
D30M S63Y G102Q	2.86	2 of 3
Y32S G56M S57M	3.15	3 of 3
M34N A61T V64E	4.62	1 of 3
N54L D62P G102A	4.42	1 of 3
S52P V64S	2.97	1 of 3
D30P A33Q D62Q	5.36	3 of 3
F29E I51K N54A	4.28	2 of 3
F29R M34D G103R	4.34	2 of 3
D31N R101D	2.95	3 of 3
F29C I51M V64L	5.28	2 of 3
H35L Y105S F106L	4.12	2 of 3
T28F K65E G102Q	2.59	3 of 3
D30R V99T D107A	nd	0 of 3
T28F S52T Y108T	6.05	3 of 3
M34C K65W Y105P	nd	0 of 3
Y32K M34L Y60P	3.56	1 of 3
H35R S55P Y108W	3.24	2 of 3
M34R V64S V99R	nd	0 of 3
F29M Y32N G100T	3.80	3 of 3
F27Y S57W S63E	4.92	1 of 3
G56K F106I	2.29	3 of 3
S55N V64W G104I	5.01	2 of 3
D62R G102C Y108L	4.91	2 of 3
G26K S57W V99C	nd	0 of 3
F29R V64L Y108A	nd	0 of 3
I58C D62Y G100T	4.57	1 of 3
G59P S63V D107P	4.33	1 of 3
F29C S55C S57R	nd	0 of 3
D31F H35Y K65Y	nd	0 of 3
Y32D D62L K65A	4.29	1 of 3
G26Q I58F G102T	5.13	3 of 3
F29Q R101D Y105S	nd	0 of 3
S55M V64W G102N	5.56	2 of 3
S52L G102D Y105A	5.98	1 of 3
F29K A61E Y108K	4.12	2 of 3
T28M A61N G103H	4.91	1 of 3
F29M H35W I58G	4.35	1 of 3
G50F S52N G100D	4.70	1 of 3